Reference: ChEMBL document CHEMBL1125532, “Synthesis and cholinergic properties of N-aryl-2-[[[5-[(dimethylamino)methyl]-2-furanyl]methyl]thio]ethylamino analogs of ranitidine” (J Med Chem, 1992)

Sequences of proteins named here, by UniProt entry; tags and fusion partners are left off.
UniProt P06276, whole entry: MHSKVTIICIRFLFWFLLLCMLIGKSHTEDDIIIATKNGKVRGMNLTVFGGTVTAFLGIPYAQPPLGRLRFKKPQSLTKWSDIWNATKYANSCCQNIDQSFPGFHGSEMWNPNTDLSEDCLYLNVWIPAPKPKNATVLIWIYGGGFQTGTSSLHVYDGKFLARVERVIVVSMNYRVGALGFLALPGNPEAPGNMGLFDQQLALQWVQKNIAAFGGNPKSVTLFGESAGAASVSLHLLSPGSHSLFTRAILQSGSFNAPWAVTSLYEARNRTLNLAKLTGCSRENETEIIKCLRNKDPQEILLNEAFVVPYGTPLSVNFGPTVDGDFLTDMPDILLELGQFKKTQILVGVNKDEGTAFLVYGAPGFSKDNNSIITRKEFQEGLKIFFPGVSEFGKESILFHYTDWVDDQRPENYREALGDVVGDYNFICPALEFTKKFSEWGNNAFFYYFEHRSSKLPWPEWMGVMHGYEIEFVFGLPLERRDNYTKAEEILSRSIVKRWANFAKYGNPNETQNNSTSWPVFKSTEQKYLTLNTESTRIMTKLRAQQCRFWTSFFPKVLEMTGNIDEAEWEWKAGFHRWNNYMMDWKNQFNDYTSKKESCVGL

Molecular target: Cholinesterase (Homo sapiens, UniProt P06276)
Test: In vitro Butyrylcholinesterase inhibitory activity to determine its ability to reverse the cholinergic deficit characteristic of AD

SMILES: CN(C)Cc1ccc(CSCCNc2nnccc2[N+](=O)[O-])o1
- IC50: 10 µM
